According to PMC10313165, “Imaging single CaMKII holoenzymes at work by high-speed atomic force microscopy” (Science Advances, 2023):

Molecular target: the molecule itself
Assay: high-speed atomic force microscopy; single holoenzyme particles on mica modified with cationic pillar[5]arene; buffer A (50 mM tris-HCl pH 7.4, 15 mM KCl, 10 mM MgCl2, 10% glycerol) with the additives of each state; 24-26 °C; kinase domains seen around a central hub assembly

| Protein | binding result |
| --- | --- |
| no-linker rat CaMKIIα holoenzyme (enzyme, rat (Rattus norvegicus), CaMKIIα, rat (Rattus norvegicus), […] lacking the linker, […]; also called nlCaMKIIα; source: HEK293, transfected, purified (Strep-Tactin Sepharose, then NTA column)) MATITCTRFTEEYQLFEELGKGAFSVVRRCVKVLAGQEYAAKIINTKKLSARDHQKLEREARICRLLKHPNIVRLHDSISEEGHHYLIFDLVTGGELFEDIVAREYYSEADASHCIQQILEAVLHCHQMGVVHRDLKPENLLLASKLKGAAVKLADFGLAIEVEGEQQAWFGFAGTPGYLSPEVLRKDPYGKPVDLWACGVILYILLVGYPPFWDEDQHRLYQQIKAGAYDFPSPEWDTVTPEAKDLINKMLTINPSKRITAAEALKHPWISHRSTVASCMHRQETVDCLKK[about 20 residues omitted]VRKQEIIKVTEQLIEAISNGDFESYTKMCDPGMTAFEPEALGNLVEGLDFHRFYFENLWSRNSKPVHTTILNPHIHLMGDESACIAYIRITQYLDAGGIPRTAQSEETRVWHRRDGKWQIVHFHRSGAPSVLPH | binds |
| no-linker rat CaMKIIα I321E holoenzyme (enzyme, rat (Rattus norvegicus), also called nlCaMKIIα_(I321E); source: HEK293, transfected, purified (Strep-Tactin Sepharose, then NTA column)) MATITCTRFTEEYQLFEELGKGAFSVVRRCVKVLAGQEYAAKIINTKKLSARDHQKLEREARICRLLKHPNIVRLHDSISEEGHHYLIFDLVTGGELFEDIVAREYYSEADASHCIQQILEAVLHCHQMGVVHRDLKPENLLLASKLKGAAVKLADFGLAIEVEGEQQAWFGFAGTPGYLSPEVLRKDPYGKPVDLWACGVILYILLVGYPPFWDEDQHRLYQQIKAGAYDFPSPEWDTVTPEAKDLINKMLTINPSKRITAAEALKHPWISHRSTVASCMHRQETVDCLKK[about 20 residues omitted]VRKQEIEKVTEQLIEAISNGDFESYTKMCDPGMTAFEPEALGNLVEGLDFHRFYFENLWSRNSKPVHTTILNPHIHLMGDESACIAYIRITQYLDAGGIPRTAQSEETRVWHRRDGKWQIVHFHRSGAPSVLPH | binds |
